US20020035061A1, “COMPOSITIONS AND METHODS FOR TREATING INFECTIONS USING CATIONIC PEPTIDES ALONE OR IN COMBINATION WITH ANTIBIOTICS” (priority 1996, published 2002)
“And” between values parts separate entries of the source, which are not always exact repeats. Equal entries are not always repeated. Where two headings read alike, the source gives them in different places.

Columns and labels:
[1] = test system: mammalian red blood cells; details: for % Lysis: 37° C., 1 hour
[2] = test system: microorganisms with acquired resistance
[3] = test system: bacterial isolates
[4] = test system: sheep RBC; experiment: Red blood cell (RBC) lysis assay, standardized conditions (1% RBC); format: cell-based; details: for % lysis at 5 μg/ml: 5 μg/ml peptide
[5] = Circular dichroism spectroscopy; format: physicochemical; details: for min λ, Phosphate buffer / min λ, TFE / max λ, TFE / max λ, Phosphate buffer: CD spectrum; for min λ, Phosphate buffer / Conformation in buffer / max λ, Phosphate buffer: 10 mM sodium phosphate buffer, pH 7.2; for min λ, TFE / Conformation in TFE / max λ, TFE: phosphate buffer and 40% (v/v) trifluoroethanol; for Conformation in buffer / Conformation in TFE: CD
[6] = Acute single dose toxicity, intraperitoneal route, isotonic saline; format: in vivo; details: Swiss CD1 mice, 5 days
Protocol: In vivo toxicity of a peptide is measured through administration of a range of doses to animals, typically mice, by a route defined in part by the intended clinical use. The survival of the animals is recorded and LD50, LD90-100, and maximum tolerated dose (MTD) can be calculated to enable comparison of analogues. Indolicidin analogues less toxic than indolicidin are preferred.
(§1) The acute, single dose toxicity of various indolicidin analogues is tested in Swiss CD1 mice using various routes of administration. In order to determine the inherent toxicities of the peptide analogues in the absence of any formulation/delivery vehicle effects, the peptides are all administered in isotonic saline with the final pH between 6 and 7.
Intraperitoneal route. Groups of 6 mice are injected with peptide doses of between 80 and 5 mg/kg in 500 μl dose volumes. […] The LD50 values are calculated using the method of Reed and Muench (J. of Amer. Hyg. 27:493-497, 1938).

[7] = Acute single dose toxicity, intravenous route, isotonic saline; format: in vivo; details: Swiss CD1 mice, 5 days
Protocol: In vivo toxicity of a peptide is measured through administration of a range of doses to animals, typically mice, by a route defined in part by the intended clinical use. […]. Indolicidin analogues less toxic than indolicidin are preferred.
as §1
Intravenous route. […]. […]

[8] = Single and multiple dose toxicity, intravenous injection, formulations; format: in vivo, outbred ICR mice; details: Intravenous injection, single dose, outbred ICR mice (Table 32)
[9] = Single dose toxicity, intraperitoneal injection, formulations; format: in vivo, outbred ICR mice; details: Intraperitoneal injection, single dose, outbred ICR mice (Table 32)
Protocol: The single dose toxicity of a cationic peptide and antibiotic agent combination is examined in outbred ICR mice. Intraperitoneal injection of the combination in isotonic saline is carried out at increasing dose levels. The survival of the animals is monitored for 7 days. The number of animals surviving at each dose level is used to determine the maximum tolerated dose (MTD). In addition, the MTD can be determined after administration of the peptide and agent by different routes, at different time points, and in different formulations.
The single dose toxicity of MBI 10CN and MBI 11CN is examined in outbred ICR mice (Table 32).
The single dose toxicity of MBI 10CN and MBI 11CN in different formulations is also examined in outbred ICR mice (Table 36). Intraperitoneal injection (groups of 2 mice) of MBI 10CN in formulation D show no toxicity up to 29 mg/kg and under the same conditions MBI 11CN show no toxicity up to 40 mg/kg.

GKPRPYSPIPTSPRPIRY [MBI 31]
% Lysis [1]: 0.3%

Gentamicin
Gentamicin MIC Alone ([2]; A. baumannii ABI001): 64 µg/mL
Gentamicin MIC Alone ([2]; S. maltophilia SMA017): 64 µg/mL
Gentamicin MIC Alone ([2]; S. maltophilia SMA019): 64 µg/mL
Gentamicin MIC Alone ([2]; S. maltophilia SMA020): 64 µg/mL
Gentamicin MIC Alone ([2]; S. maltophilia SMA021): 64 µg/mL
Gentamicin MIC Alone ([3]; A. baumannii ABI001): 64 µg/mL
Gentamicin MIC Alone ([3]; E. coli ECO006): 64 µg/mL
Gentamicin MIC Alone ([3]; K. pneumonia KP020): 64 µg/mL
Gentamicin MIC Alone ([3]; S. aureus SA025 MRSA): 64 µg/mL
Gentamicin MIC Alone ([3]; S. epidermidis SE074): 64 µg/mL
Gentamicin MIC Alone ([3]; S. maltophilia SMA017): 64 µg/mL
Gentamicin MIC Alone ([3]; S. maltophilia SMA021): 64 µg/mL

Gramicidin-S
% lysis at 5 μg/ml ([4]; 1% (v/v) sheep RBC, pH 6-7): 30%

ILKKFPFFPFRRK [MBI 11A1CN]
% Lysis [1]: 0.5%

ILKKFPFWPWRRK [MBI 11A7CN]
% Lysis [1]: 0.5%

ILKKFPWFPWRRK [MBI 11A6CN]
% Lysis [1]: 0.7%

ILKKIPIIPIRRK [MBI 11A2CN]
% Lysis [1]: 0.1%

ILKKNPNNPNRK [MBI 11B4ACN]
min λ, Phosphate buffer [5]: 200 nm
min λ, TFE [5]: 200 nm
Conformation in buffer [5]: Unordered
Conformation in TFE [5]: Unordered

ILKKNPNNPNRRK [MBI 11CNY1]
min λ, Phosphate buffer [5]: 200 nm
min λ, TFE [5]: 200 nm
Conformation in buffer [5]: Unordered
Conformation in TFE [5]: Unordered

ILKKNPNNPRRK [MBI 11G6ACN]
min λ, Phosphate buffer [5]: 200 nm
min λ, TFE [5]: 199 nm
Conformation in buffer [5]: Unordered
Conformation in TFE [5]: Unordered

ILKKPWWPWRRK [MBI 11G3CN]
% Lysis [1]: 0.5%

ILKKWPWPWRRK [MBI 11A4CN]
% Lysis [1]: 0.3%

ILKKWPWW PWKKK [MBI 11B10CN]
% Lysis [1]: 0.2%

ILKKWPWWPRRK [MBI 11G6CN]
% Lysis [1]: 0.6%

ILKKWPWWPWK [MBI 11G13CN]
% Lysis [1]: 0.2%

ILKKWPWWPWR [MBI 11G14CN]
% Lysis [1]: 1.1%

ILKKWPWWPWRK [MBI 11B4CN]
% Lysis [1]: 1.6%

ILKKWPWWPWRPMILKKAGS [MBI 11D5CN]
% Lysis [1]: 0.7%

ILKKWPWWPWRR [MBI 11G7CN]
% Lysis [1]: 1.5%

ILKKWPWWPWRRIMILKKAGS [MBI 11D6CN]
% Lysis [1]: 1.1%

ILKKWPWWPWRRK [MBI 11ACN]
min λ, Phosphate buffer [5]: 199 nm
max λ, TFE [5]: 219 nm
min λ, TFE [5]: 203 nm
Conformation in buffer [5]: Unordered
Conformation in TFE [5]: Unordered

ILKKWPWWPWRRK [MBI 11E1CN]
% Lysis [1]: 0.8%
min λ, Phosphate buffer [5]: 201 nm
min λ, TFE [5]: 201 nm
Conformation in buffer [5]: Unordered
Conformation in TFE [5]: Unordered

ILKKWPWWPWRRK [MBI 11E2CN]
min λ, Phosphate buffer [5]: 200 nm
min λ, TFE [5]: 201 nm
Conformation in buffer [5]: Unordered
Conformation in TFE [5]: Unordered

ILKKWPWWPWRRK [MBI 11E3CN]
% Lysis [1]: 1.3%
max λ, Phosphate buffer [5]: 226 nm
min λ, Phosphate buffer [5]: 202 nm
min λ, TFE [5]: 200 nm
Conformation in buffer [5]: ppII helix
Conformation in TFE [5]: Unordered
LD50 [6]: 21 mg/kg
LD90-100 [6]: 40 mg/kg
MTD [6]: <20 mg/kg

ILKKWPWWPWRRK [MBI 11]
lysis [1]: 2.3%
red blood cell lysis [1]: substantial lysis
min λ, Phosphate buffer [5]: 199 nm
max λ, TFE [5]: 220 nm
min λ, TFE [5]: 202, nm and 227 nm
Conformation in buffer [5]: Unordered
Conformation in TFE [5]: β-turn

ILKKWPWWPWRRKMILKKAGS [MBI 11D4CN]
% Lysis [1]: 0.9%

ILKKWPWWVWRRK [MBI 11F2CN]
% Lysis [1]: 1.4%

ILKKWPWWWRK [MBI 11D15CN]
% Lysis [1]: 0.9%

ILKKWPWWWRRK [MBI 11G5CN]
% Lysis [1]: 0.6%

ILKKWVWWPWRRK [MBI 11F3CN]
max λ, Phosphate buffer [5]: 228 nm
min λ, Phosphate buffer [5]: 199 nm
min λ, TFE [5]: 202 nm
Conformation in buffer [5]: ppII helix
Conformation in TFE [5]: Unordered
LD50 [6]: 52 mg/kg
LD90-100 [6]: 80 mg/kg
MTD [6]: 20 mg/kg
% lysis at 5 μg/ml ([4]; 1% (v/v) sheep RBC, pH 6-7): 1%
% lysis at 50 μg/ml ([4]; 1% (v/v) sheep RBC, 50 μg/ml peptide, pH 6-7): 6%
% lysis at 500 μg/ml ([4]; 1% (v/v) sheep RBC, 500 μg/ml peptide, pH 6-7): 17%
lysis relative to the other analogues ([4]; 5, 50 and 500 μg/ml): significantly less lytic than the other two variants
LD50 [7]: 10 mg/kg
LD90-100 [7]: 12 mg/kg
MTD [7]: 8 mg/kg

ILKKWVWWVWRRK [MBI 11F1CN]
% Lysis [1]: 2.1%

ILKKWWWPWRK [MBI 11D14CN]
% Lysis [1]: 1.1%

ILKKWWWPWRRK [MBI 11G4CN]
min λ, Phosphate buffer [5]: 199, nm and 221 nm
max λ, TFE [5]: 215 nm
min λ, TFE [5]: 201, nm and 226 nm
Conformation in buffer [5]: Unordered
Conformation in TFE [5]: β-turn

ILKKYPWYPWRRK [MBI 11A5CN]
% Lysis [1]: 0.3%

ILKKYPYYPYRRK [MBI 11A3CN]
% Lysis [1]: 0.0%

ILKNPNNPWRR [MBI 11G7ACN]
min λ, Phosphate buffer [5]: 200 nm
max λ, TFE [5]: 221 nm
min λ, TFE [5]: 202 nm
Conformation in buffer [5]: Unordered
Conformation in TFE [5]: Unordered

ILKWPWWPWRK [MBI 11B5CN]
% Lysis [1]: 1.7%

ILKWPWWPWRRK [MBI 11B3CN]
% Lysis [1]: 3.3%

ILRRNPNNPNRRK [MBI 11B1CNW1]
min λ, Phosphate buffer [5]: 201 nm
min λ, TFE [5]: 201 nm
Conformation in buffer [5]: Unordered
Conformation in TFE [5]: Unordered

ILRRWPWWPWRK [MBI 11B2CN]
% Lysis [1]: 3.2%

ILRRWPWWPWRRK [MBI 11B1CN]
% Lysis [1]: 3.1%

ILRRWPWWPWRRR [MBI 11B9ACN]
min λ, Phosphate buffer [5]: 200 nm
min λ, TFE [5]: 200 nm
Conformation in buffer [5]: Unordered
Conformation in TFE [5]: Unordered

ILWPWWPWRRK [MBI 11B8CN]
% Lysis [1]: 1.1%

KKWWRRALQGLKTAGPAIQSVLNK [MBI 21A2]
% Lysis [1]: 0.5%

KWKSFIKKLTSAAKKVLTTGLPALIS [MBI 29A3]
% Lysis [1]: 2.0%

KWKSFIKKLTSAAKKVVTTAKPLISS [MBI 26]
% Lysis [1]: 0.6%
MTD [8]: >18 mg/kg
MTD [9]: >37 mg/kg

LKKWPWWPWRRK [MBI 11D1CN]
min λ, Phosphate buffer [5]: 200 nm
min λ, TFE [5]: 204 nm
Conformation in buffer [5]: Unordered
Conformation in TFE [5]: Unordered

PWWPWRRK [MBI 11D3CN]
% Lysis [1]: 0.8%
